Literature values, collected in patent US6653504B1, “Non-hygroscopic salts of active ingredients having therapeutical and/or nutritional activities and orally administrable compositions containing same” (Sigma-Tau Industrie Farmaceutiche Riunite S.p.A., priority 1999, dated 2003).

Details: background statement, no conditions given; cited from earlier work

Substance: acetyl L(−)-carnitine acid fumarate and tartrate [acetyl L(−)-carnitine tartrate]
- Hygroscopicity of known salts: strongly hygroscopic
